The term Cmax denotes the maximum level reached in the sampled fluid or tissue. A word on the Tmax: it is the time at which the peak concentration occurs. As usually defined, the Kd is the concentration at which binding is half-saturated. A higher Kd goes with lower affinity.

Sequences of proteins named here, by UniProt entry; tags and fusion partners are left off. Residues count along the entry.
UniProt P02768, 25-609: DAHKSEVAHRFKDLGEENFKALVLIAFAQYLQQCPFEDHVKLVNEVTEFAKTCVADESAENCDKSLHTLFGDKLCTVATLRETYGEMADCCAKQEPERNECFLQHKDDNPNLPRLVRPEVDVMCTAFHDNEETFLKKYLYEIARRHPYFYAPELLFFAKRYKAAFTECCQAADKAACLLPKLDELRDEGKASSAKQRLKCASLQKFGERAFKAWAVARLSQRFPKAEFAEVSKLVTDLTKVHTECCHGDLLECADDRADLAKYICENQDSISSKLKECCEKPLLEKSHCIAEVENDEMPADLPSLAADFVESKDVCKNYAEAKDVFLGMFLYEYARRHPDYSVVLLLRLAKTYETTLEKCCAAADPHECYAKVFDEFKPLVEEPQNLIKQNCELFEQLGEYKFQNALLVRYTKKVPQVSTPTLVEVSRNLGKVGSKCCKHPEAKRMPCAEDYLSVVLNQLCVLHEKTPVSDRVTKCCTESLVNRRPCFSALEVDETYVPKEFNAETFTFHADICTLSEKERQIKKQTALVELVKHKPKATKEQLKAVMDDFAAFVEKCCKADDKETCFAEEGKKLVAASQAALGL

The source of these data is patent publication US11529394B2, “Polypeptide conjugates and methods of uses” (BEIJING QL BIOPHARMACEUTICAL CO., LTD., priority 2020, dated 2022).

The nature of series [1]: Pharmacokinetic measurement in mice. Type of series: in vivo, C57BL/6 mice. Conditions: single s.c. 30 nmol/kg.
The target of the next series is human serum albumin (Homo sapiens, UniProt P02768). Put plainly: Human serum albumin binding by surface plasmon resonance (Biacore 8K). The note with it: human serum albumin on CM5 chip, SPR. For orientation: Surface plasmon resonance follows binding to a sensor surface in real time, without labels.
Series [2] in a line: Pharmacokinetic measurement in minipigs. Conditions: for AUCtau: Tau = 336 h.
Series [3] can be described thus: PK study in cynomolgus monkeys, intravenous. Conditions: single i.v. 4 nmol/kg.

As for semaglutide, the AUCtau was 0.6147 µM·h in series [1] (Tau = 24 h), 6.643 µM·h in series [2] (i.v. 5 nmol/kg), 5.658 µM·h in series [2] (s.c. 5 nmol/kg) and 2.402 µM·h in series [3] (t = […]). The substance further returned a Cmax in series [1] (plasma) of 43.1 nM. For the same substance, the Tmax was found to be 6.7 h in series [1] (plasma) and 16 h in series [2] (s.c. 5 nmol/kg). This substance gave a Kd at human serum albumin of 2820 nM. Further, the “Cmax (C0 for iv)” value was found to be 188 nM in series [2] (i.v. 5 nmol/kg (C0)) and 54.9 nM in series [2] (s.c. 5 nmol/kg (Cmax)). In addition, the F in series [2] (s.c. 5 nmol/kg) is listed as 85%. In series [3], this substance came in with a C0 of 85.1 nM.
